Data taken from publication PMC12706508.

Biological target: Opto-p53 p53CT localizer (CIBN-p53CT(98-393)-mNeonGreen-T7) (UniProt P04637)

fold increase of the p53 transcription reporter (mScarlet-I-3xNLS fluorescence) in HCT116 reporter cells co-expressing both fragments, blue light 0-24 hours: 4 fold
Substance: Opto-p53 p53NT actuator (miRFP703-p53NT(1-97)-hCRY2-NLS) (from UniProt P04637 1-97)
